Target: D(4) dopamine receptor (Homo sapiens) (UniProt P21917)
Assay: GPCRScan assay: inhibition of D4
Conditions: Compound concentration 10.0 uM

Chains of the proteins cited; added tags and fusions are not shown.
UniProt P21917, whole entry, looked up: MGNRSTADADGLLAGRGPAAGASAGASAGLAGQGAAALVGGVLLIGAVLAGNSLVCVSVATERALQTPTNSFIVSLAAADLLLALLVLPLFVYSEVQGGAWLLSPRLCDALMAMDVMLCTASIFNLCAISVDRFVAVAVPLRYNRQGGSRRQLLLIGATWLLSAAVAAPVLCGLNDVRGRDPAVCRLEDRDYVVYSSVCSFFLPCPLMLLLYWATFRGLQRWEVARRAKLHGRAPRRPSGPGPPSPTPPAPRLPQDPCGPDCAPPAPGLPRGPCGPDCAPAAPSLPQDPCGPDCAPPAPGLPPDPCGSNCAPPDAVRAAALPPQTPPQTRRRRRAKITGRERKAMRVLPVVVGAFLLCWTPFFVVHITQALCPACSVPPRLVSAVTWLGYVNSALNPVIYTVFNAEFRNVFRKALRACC

Cc1ccc2nc(CNCCCOc3ccccc3)cc(O)c2c1
inhibition: 96.7%

From ChEMBL document CHEMBL4507309
